Assay results: patent US12054553B2, “Immunotherapeutic tumor treatment method” (Nektar Therapeutics, priority 2017, dated 2024)

Assays:
[1] = system: B16F10 mouse melanoma tumors; assay: Immune cells in tumor microenvironment by flow cytometry, subcutaneous B16F10 melanoma; assay type: in vivo, mice
[2] = system: STAT5 phosphorylation in lymphocytes; assay: STAT5 phosphorylation in lymphocytes by flow cytometry after administration in mice; assay type: in vivo
Description: Conventional approaches, such as those involving radiolabeling a compound, administering it in vivo, and determining its clearance, may be used to determine whether a compound proposed to be a long-acting IL-2Rβ biased agonist is “long-acting”. For the purposes herein, the long-acting nature of an IL-2Rβ biased agonist is typically determined using flow cytometry to measure STAT5 phosphorylation in lymphocytes at various time points after administration of the agonist to be evaluated in mice. As a reference, the signal is lost by around 24 hours with IL-2, but is sustained fora period greater than that for a long-acting IL-2Rβ-biased agonist.

(2,7-(bis-methoxyPEG10kD-carboxyamide)(9H-fluorene-9-yl)methyl N-carbamate)4-6interleukin-2 [RSLAIL-2]
activated natural killer (NK) cells ([1]; 5 and 7 days after treatment initiation): increased | CD4 cell percentages of tumor-infiltrating lymphocytes ([1]; day 5, relative to vehicle): diminished | CD4 cell percentages of tumor-infiltrating lymphocytes ([1]; day 10, compared with vehicle and aldesleukin): fewer CD4 cell percentages | total and memory CD8 cells as percentage of tumor-infiltrating lymphocytes ([1]; relative to vehicle): significant (P<0.05) and sustained total and memory CD8 T-cell stimulation | percentage of Tregs (FoxP3+ subset of CD4 cells) in tumor ([1]; single dose RSLAIL-2 or 5 doses aldesleukin): reduced percentage of Tregs at every time point | duration of STAT5 phosphorylation signal [2]: sustained over several days
